# Reference: PubChem BioAssay AID720641 (ICCB-Longwood Screening Facility, Harvard Medical School, 2013)
# This is a selection; strong and weak results do not stand in their true shares. Activity calls are given as the source filed them.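 How the source made its calls: active means relative growth at most 50% at the other temperature and 20+ points below 30 °C, or under 10% at both; inactive means the rest, inconclusive results apart.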
# Test: S. aureus growth inhibition at 42 and 30 °C, primary screen, LtaS inhibitor project, RN4220, two temperatures (AID 720641)
# Conditions: OD600, 20 h, 42 °C, hits give low values
row,SMILES,relative growth
1,CN(CCCl)CCCl,inactive: 97.2%
